Assay results from US7531500B2, “Preventing airway mucus production by administration of EGF-R antagonists” (The Regents of the University of California, priority 1998, dated 2009).

Key:
NCI-H292 cells [1] = assay: In situ hybridization of EGFR mRNA in NCI-H292 cells; assay type: cell-based, human; details: within 6 hours, increased at 12 hours
Experimental: NCI-H292 cells, a human pulmonary mucoepidermoid carcinoma cell line, were grown in RPMI 1640 medium containing 10% fetal bovine serum, penicillin (100 U/ml), streptomycin (100 μg/ml) and Hepes (25 mM) at 37° C. in a humidified 5% CO2 water-jacketed incubator. Either 6-well culture plates or 8-chamber slides were used to culture the cells. When confluent, cells were incubated for 1 hour with cigarette smoke solution. The cells were then washed and incubated with fresh medium alone. Experiments were terminated at preselected times (for mRNA, 6 hours and 12 hours; for protein, 24 hours). As controls, cells were incubated with medium alone for same time periods. In inhibition studies with EGFR tyrosine kinase inhibitors, NCI-H292 cells were pretreated with BIBX1522 (10 μg/ml, generously provided by Boehringer Ingelheim Pharma KG, Ingelheim, Germany) or tyrphostin AG1478 (10 μM, Calbiochem) 30 min before delivering the cigarette smoke solution. The effects of a selective inhibitor of platelet-derived growth factor receptor tyrosine kinase (tyrphostin AG1295, 100 μM, Calbiochem), and a negative control for tyrphostins (tyrphostin A1, 100 μM, Calbiochem) were also examined. The role of reactive oxygen species was examined using a scavenger of oxygen free radicals DMSO (1%, Sigma), or superoxide dismutase (SOD, 300 U/ml, Sigma). […]

NCI-H292 cells [2] = assay: Northern analysis for MUC5 gene expression in NCI-H292 cells; assay type: cell-based, human; details: EGF or TGFα 25 ng/ml, TNFα 20 ng/ml; 12 h, 24 h
Experimental: Cell culture. A human pulmonary mucoepidermoid carcinoma cell line, NCI-H292 cells, were grown in RPMI11640 medium containing 10% fetal bovine serum, penicillin (100 U/ml), streptomycin (100 μg/ml) at 37° C. in a humidified 5% CO2 water-jacketed incubator. When confluent, cells were incubated with EGF (recombinant human EGF, 25 ng/ml, Genzyme, Cambridge, Mass.), TGFα (recombinant human TGFα, 25 ng/ml, Qenzyme), TNFα (recombinant human TNFα, 20 ng/ml, Genzyme), EGF (25 ng/ml) plus TNFα (20 ng/ml) or TGFα (25 ng/ml) plus TNFα (20 ng/ml) for 12 h, 24 h or 48 h. In inhibition studies with an EGF-R tyrosine kinase inhibitor, BIBX1522 (10 μg/ml, generously provided by Boehringer Ingelheim Inc., Ingelheim, Germany), cells were pretreated with BIBX1522 30 min before adding growth factors. After incubation, cells grown in a T-75 flask were used for total RNA extraction or protein extraction, and 8-chamber slides were used for Alcian blue/PAS-staining to visualize mucins.
Probes. EGF-R mRNA expression was determined using the linearized pTRI-EGF-R-human probe template (Ambion, Austin, Tex.). This probe contains a 360 bp cDNA fragment of the human EGF-R gene, which spans exons 12-14. MUCG gene expression was determined using human MUC5AC probe, which contains a 298 bp cDNA fragment of human MUC5AC gene (generously provided by Dr. Carol Basbaum).
Northern blotting. […]

For “TNFα: recombinant human tumor necrosis factor alpha (Genzyme)”, the “EGFR mRNA expression” value (NCI-H292 cells [1]) was “increased” and the “MUC5 gene expression on incubation with mediator” value (NCI-H292 cells [2]) was “did not affect MUC5 gene expression”.
